Apparent affinities of Ab-95 variants for a coronavirus HR2 peptide

The target is the same throughout: PDVDLGDISGINAS, from the HR2 region of SARS-CoV-2 spike.

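Phage display of a naive human antibody library on the peptide gave the parent. The library (AAYL52) carries one to three amino acid substitutions per variant, with no insertions or deletions. In AlphaSeq, yeast of one mating type display the scFv and yeast of the other type display the target. The frequency of each diploid, read from paired DNA barcodes, reflects how well the two displayed proteins bind. Read counts were normalised to the haploid input and turned into Kd by a linear fit to BCL2-family pairs of known affinity, for each replicate. Each pool was mated in three replicate cultures.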

Parent: Ab-95, a human scFv built as VH, the linker GGGGSGGGGSGGGGS, VL. Only the CDRs of the light chain vary.
VH: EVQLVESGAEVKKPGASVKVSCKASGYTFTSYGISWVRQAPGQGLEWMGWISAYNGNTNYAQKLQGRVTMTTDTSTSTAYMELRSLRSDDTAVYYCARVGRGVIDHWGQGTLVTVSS
VL: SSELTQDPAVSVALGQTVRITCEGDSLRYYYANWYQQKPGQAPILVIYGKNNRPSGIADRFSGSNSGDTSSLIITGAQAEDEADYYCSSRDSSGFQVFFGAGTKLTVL

The parent's light chain CDRs are EGDSLRYYYAN, GKNNRPS, SSRDSSGFQVF; each variant's own CDRs replace them letter for letter. Numbers give log10(Kd / nM), so 0 is 1 nM and 3 is 1 µM. Smaller is tighter. Replicates are averaged; those with no signal do not enter the mean. A pair that was not seen in that replicate is written "n.d."; this usually means weak binding, but a binder can also be missed.

CDR-L1,CDR-L2,CDR-L3,"replicates, log10 nM","log10 Kd (nM), mean",empty controls
EGDSLRYYYAN,GKNNRPS,SRRSSSGFQVG,3.76 n.d. n.d.,3.76,4 of 9 (3.43)
EGCSVRYYYAN,GKNNRPS,SQRDSSGFQVF,2.71 2.77 3.17,2.88,4 of 9 (3.78)
EGDSLYYYYAN,GKNNRPS,SSRDSSGFDVF,2.80 3.00 2.65,2.82,2 of 9 (3.71)
EGDILRYYYAN,GKNMRPS,DSRDSSGFQVF,n.d. n.d. n.d.,n.d.,1 of 9 (4.07)
EGDSLRYYYAN,GKNNRPK,SQRDSSGFQVF,n.d. 3.73 3.95,3.84,0 of 9
EGDSLRYYYAL,GKNNRPH,SSRDSVGFQVF,3.67 n.d. n.d.,3.67,2 of 9 (3.91)
EGDSLRFYYAN,GKNNRPS,SERDCSGFQVF,2.67 5.21 3.30,3.73,2 of 9 (3.77)
EGDKLRYYYAN,GKNNRPS,SSRDSSGFSVF,n.d. 5.63 4.44,5.03,5 of 9 (3.93)
EGDSYRYYYAN,GKNNRPS,SSRAKSGFQVF,n.d. n.d. n.d.,n.d.,4 of 9 (3.95)
EGDSLRYWYHN,GKNNRPS,SSRDSSGFQVD,5.13 n.d. n.d.,5.13,4 of 9 (4.38)
EGDSLRYYYAN,GKPNRPS,SSRDVSGFGVF,n.d. n.d. 4.25,4.25,5 of 9 (4.12)
EGDSLRYYYFN,GKNNRPS,SSCDSSGYQVF,n.d. n.d. n.d.,n.d.,1 of 9 (2.57)
HGDSLRYYYAN,GKSNRPS,STRDSSGFQVF,2.75 2.44 2.13,2.44,2 of 9 (3.77)
EGDSLRYYYAN,GKTNRPS,TSRVSSGFQVF,n.d. n.d. n.d.,n.d.,3 of 9 (3.53)
EGDSLRYYYAN,GKNNRPS,SSCDQGGFQVF,2.60 2.72 2.74,2.68,3 of 9 (3.81)
EGDFLRYYYAN,GKNNRPS,SFRDSSVFQVF,n.d. 5.58 3.93,4.76,1 of 9 (3.66)
EGDSLRYYYAN,MKNMRPS,SSRDSSGFRVF,n.d. n.d. n.d.,n.d.,2 of 9 (4.34)
PGDSWRYYYAN,GKNNRMS,SSRDSSGFQVF,4.72 n.d. n.d.,4.72,5 of 9 (4.17)
EGDSLRYYYAN,GKNNRPS,SSRDSTGFKVG,2.59 2.13 2.67,2.46,1 of 9 (4.06)
EGDSLRYYYAN,GKNNRPD,SSRDSSGWQVL,2.18 1.84 2.04,2.02,9 of 9 (3.98)
EGDSLQYYYWN,GKNNHPS,SSRDSSGFQVF,n.d. 5.60 n.d.,5.60,3 of 9 (3.92)
EGDSLRYIYAN,GKNARPS,SARDSSGFQVF,2.03 2.07 1.63,1.91,7 of 9 (4.12)
EGDSLRYYHAN,GKENRPS,SSRESSGFQVF,2.07 2.27 2.05,2.13,3 of 9 (3.61)
EGGSLRYYYAN,GKNNRYS,SSRDSSGFQVF,2.91 3.00 3.29,3.06,4 of 9 (3.83)
ENDSLRYYYAN,GKNNRPS,SSRDSSNFQVF,4.85 n.d. n.d.,4.85,1 of 9 (4.31)
EGRSLRYYYAN,GKNNRHL,SSRDSSGFQVF,3.91 n.d. 2.83,3.37,1 of 9 (2.62)
EGDSLRYYYAI,GKNNRPS,SSRDSVGFQCF,4.03 3.97 3.02,3.67,3 of 9 (4.12)
EGDSLRYYYMN,FKNNRPK,SSRDSSGFQVF,5.07 n.d. n.d.,5.07,3 of 9 (3.79)
EGDSLRYYIVN,GKNNRPS,SSRDHSGFQVF,1.99 2.34 2.06,2.13,5 of 9 (4.14)
EGDSLRYAYAN,GKNNRPS,SSRDSIGFQVF,1.03 1.07 0.38,0.83,1 of 9 (3.58)
IGDSLRYYYAN,GKNNRPS,SSRDSWGFQVF,3.66 3.97 n.d.,3.82,4 of 9 (4.04)
EGDSLDYYYAN,GKNNRPS,SSADSSGYQVF,3.16 3.44 2.52,3.04,1 of 9 (3.02)
EGDSLRYYYAN,TKNNRPS,SSRDISGFQCF,4.00 n.d. n.d.,4.00,0 of 9
EGDCLRYYYAN,GKNVRPS,SSRDSSGFQVF,n.d. 5.38 n.d.,5.38,1 of 9 (3.84)
EGDSHRYYYAN,GKINRPS,SSRDSSGFQVF,n.d. n.d. n.d.,n.d.,2 of 9 (3.97)
EGDSLRYYNAN,GKNNRPS,SSNDSSGFQVF,1.19 0.76 0.67,0.87,0 of 9
EGDSLRYYKAN,GKNNPPS,SWRDSSGFQVF,3.97 n.d. 4.03,4.00,4 of 9 (3.66)
EGHHLRYYYAN,GKNNRPS,SSRMSSGFQVF,n.d. n.d. n.d.,n.d.,1 of 9 (2.61)
EGASLRYYYAN,RKNNRPN,SSRDSSGFQVF,n.d. 4.75 n.d.,4.75,1 of 9 (4.52)
EGDSLRYYYAN,GKNNRPS,YNRDSVGFQVF,4.35 3.14 n.d.,3.75,2 of 9 (4.43)
EGDSLRYYYAN,DKNNRVS,SSCDSSGFQVF,4.09 5.45 2.90,4.15,2 of 9 (4.88)
EGDSLRYYYRN,GKNNRPS,LSRDSSGFQWF,n.d. n.d. n.d.,n.d.,0 of 9

The first 5 variants above that were never detected:

| CDR-L1 | CDR-L2 | CDR-L3 | replicates, log10 nM | log10 Kd (nM), mean | empty controls |
|---|---|---|---|---|---|
| EGDILRYYYAN | GKNMRPS | DSRDSSGFQVF | n.d. n.d. n.d. | n.d. | 1 of 9 (4.07) |
| EGDSYRYYYAN | GKNNRPS | SSRAKSGFQVF | n.d. n.d. n.d. | n.d. | 4 of 9 (3.95) |
| EGDSLRYYYFN | GKNNRPS | SSCDSSGYQVF | n.d. n.d. n.d. | n.d. | 1 of 9 (2.57) |
| EGDSLRYYYAN | GKTNRPS | TSRVSSGFQVF | n.d. n.d. n.d. | n.d. | 3 of 9 (3.53) |
| EGDSLRYYYAN | MKNMRPS | SSRDSSGFRVF | n.d. n.d. n.d. | n.d. | 2 of 9 (4.34) |

As a blank, each scFv also met three strains without target: over library AAYL52, 28% of these pairings were detected, typically at 3.91 and seldom below 2.90. The control count says in how many pairings with the empty strains this scFv gave a signal, with their mean in brackets. Parent in this assay: reference entry 2.31, copy in this library 2.25.

The measurements come from Engelhart et al. 2022 (doi:10.1038/s41597-022-01779-4) through the FLAb antibody collection.